{"source": "patent US6960559B1", "about": "“Neurite growth regulatory factors” (University of Zurich, priority 1988, dated 2005)", "system": "C6 cells", "assay": "C6 cell spreading on CNS myelin or PLYS with protease inhibitors", "assay_type": "cell-based, rat", "conditions": "spreading on PLYS minus spreading on CNS myelin", "procedure": "Rat C6, mouse NIH 3T3 and B16 cells were cultured in Dulbecco's modified Eagle's medium (DMEM) supplemented with 10% fetal calf serum (FCS), usually to maximally 70-80% confluency. Cells were harvested with a short trypsin treatment (0.1% in Ca^2+/Mg^2+-free Hank's medium for 90 seconds) stopped by addition of FCS in excess, collected by centrifugation. Cells were resuspended in either DMEM/FCS or defined serum-free medium (MEM) and used for experiments. […]\nMyelin from rat spinal cord (CNS) or sciatic nerve (PNS) purified on a discontinuous sucrose gradient as described in Section 6.1.5., was dried overnight onto PLYS coated wells (20 μg protein/well of 100 mm^2 surface). […] Experiments were scored at different time points using a phase contrast microscope equipped with a photocamera. Quantifications were done using a surface integration program; three arbitrary fields were photographed for each well at a magnitude of 80×, at least 25 cells per picture were measured. […] Results are expressed as μ^2 of projected cell surface, or as degree, which was calculated by subtracting from the projected surface value of a spreading cell, the surface value of a completely spheric cell.", "data": [{"smiles": "NCCCCCC(=O)O", "note": "[6-amino-capronate]", "values": [{"measurement": "Inhibition on CNS (%)", "value": 0, "unit": "%"}]}]}
